The record followed here is ChEMBL document CHEMBL3797098, “An in Vitro and in Vivo Investigation of Bivalent Ligands That Display Preferential Binding and Functional Activity for Different Melanocortin Receptor Homodimers” (J Med Chem, 2016).

Sequences of proteins named here, by UniProt entry; tags and fusion partners are left off. A change or cut given only in a name is not applied to a line headed by its entry.
UniProt P56450, whole entry: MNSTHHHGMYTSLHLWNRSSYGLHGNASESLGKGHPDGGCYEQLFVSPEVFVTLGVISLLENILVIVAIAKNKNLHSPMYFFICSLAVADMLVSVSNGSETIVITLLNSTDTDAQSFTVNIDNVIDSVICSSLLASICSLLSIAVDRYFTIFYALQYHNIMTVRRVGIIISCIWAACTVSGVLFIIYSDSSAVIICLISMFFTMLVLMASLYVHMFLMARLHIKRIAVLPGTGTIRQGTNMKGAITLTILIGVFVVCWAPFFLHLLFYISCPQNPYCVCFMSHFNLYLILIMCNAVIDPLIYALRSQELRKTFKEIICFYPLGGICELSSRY
UniProt P33033: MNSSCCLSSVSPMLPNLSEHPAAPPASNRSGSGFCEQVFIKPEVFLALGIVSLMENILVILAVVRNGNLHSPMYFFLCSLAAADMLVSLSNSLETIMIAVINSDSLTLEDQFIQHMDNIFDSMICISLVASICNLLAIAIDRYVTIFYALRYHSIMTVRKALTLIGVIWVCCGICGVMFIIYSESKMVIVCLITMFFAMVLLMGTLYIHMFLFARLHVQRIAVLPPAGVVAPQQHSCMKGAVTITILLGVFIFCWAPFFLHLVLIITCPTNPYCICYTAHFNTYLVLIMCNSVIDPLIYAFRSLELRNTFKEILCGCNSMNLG
UniProt P41149: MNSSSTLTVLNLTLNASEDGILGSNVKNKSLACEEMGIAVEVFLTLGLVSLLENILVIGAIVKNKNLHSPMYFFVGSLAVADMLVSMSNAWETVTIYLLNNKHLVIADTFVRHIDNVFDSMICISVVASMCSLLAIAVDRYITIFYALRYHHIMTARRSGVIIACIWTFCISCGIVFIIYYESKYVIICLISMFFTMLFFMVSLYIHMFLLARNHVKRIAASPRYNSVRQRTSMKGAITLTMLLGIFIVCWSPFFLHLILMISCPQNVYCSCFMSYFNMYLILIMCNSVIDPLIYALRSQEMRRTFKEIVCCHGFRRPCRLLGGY

Type in all cases: functional, cell-based
For test [1], the target named is Melanocortin receptor 4 (Mus musculus) (UniProt P56450). The test is described as follows: Agonist activity at mouse MC4R expressed in HEK293 cells assessed as cAMP accumulation at 100 uM incubated for 2 hrs by alphascreen assay. For orientation: Changes in cAMP serve as a functional read-out for many G protein-coupled receptors.
In test [2] the target is Melanocortin receptor 3 (Mus musculus) (UniProt P33033). The test is described as follows: Agonist activity at mouse MC3R expressed in HEK293 cells assessed as cAMP accumulation incubated for 2 hrs by alphascreen assay relative to Ac-His-DPhe-Arg-Trp-NH2.
In test [3] the target is Melanocortin receptor 5 (Mus musculus) (UniProt P41149). The test can be described thus: Agonist activity at mouse MC5R expressed in HEK293 cells assessed as cAMP accumulation incubated for 2 hrs by alphascreen assay relative to Ac-His-DPhe-Arg-Trp-NH2.

In the case of `CC(=O)N[C@@H](Cc1c[nH]cn1)C(=O)N[C@H](Cc1ccc2ccccc2c1)C(=O)N[C@@H](CCCN=C(N)N)C(=O)N[C@@H](Cc1c[nH]c2ccccc12)C(N)=O`, the Activity in test [1] was found to be 40%.
Consider `CC(=O)N[C@@H](Cc1cnc[nH]1)C(=O)N[C@H](Cc1ccccc1)C(=O)N[C@@H](CCCNC(=N)N)C(=O)N[C@@H](Cc1c[nH]c2ccccc12)C(=O)NCCCOCCOCCOCCCNC(=O)COCC(=O)NCCCOCCOCCOCCCNC(=O)COCC(=O)N[C@@H](Cc1cnc[nH]1)C(=O)N[C@H](Cc1ccccc1)C(=O)N[C@@H](CCCNC(=N)N)C(=O)N[C@@H](Cc1c[nH]c2ccccc12)C(N)=O`, for which the Ratio EC50 in test [2] and in test [3] was 2 each time.
